Data as given in publication PMC12142581.

The chains behind the UniProt entries cited, without tags or fusion partners. Where a name states a change or a piece, a line headed by the entry shows the natural chain unless it says otherwise.
UniProt P21554, whole entry, looked up: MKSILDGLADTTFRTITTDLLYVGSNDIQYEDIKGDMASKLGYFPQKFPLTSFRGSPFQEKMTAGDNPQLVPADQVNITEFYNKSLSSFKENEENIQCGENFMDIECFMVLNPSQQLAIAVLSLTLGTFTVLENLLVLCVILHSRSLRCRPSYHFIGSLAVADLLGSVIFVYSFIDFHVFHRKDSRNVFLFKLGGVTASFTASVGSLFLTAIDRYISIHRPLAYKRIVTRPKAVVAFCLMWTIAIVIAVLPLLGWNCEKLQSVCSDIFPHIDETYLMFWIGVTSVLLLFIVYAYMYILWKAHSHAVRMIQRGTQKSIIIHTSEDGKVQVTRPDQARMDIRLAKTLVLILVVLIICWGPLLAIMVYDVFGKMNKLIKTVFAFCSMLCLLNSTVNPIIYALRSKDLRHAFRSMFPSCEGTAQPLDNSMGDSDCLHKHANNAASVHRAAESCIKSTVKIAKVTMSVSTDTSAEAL
UniProt O75469: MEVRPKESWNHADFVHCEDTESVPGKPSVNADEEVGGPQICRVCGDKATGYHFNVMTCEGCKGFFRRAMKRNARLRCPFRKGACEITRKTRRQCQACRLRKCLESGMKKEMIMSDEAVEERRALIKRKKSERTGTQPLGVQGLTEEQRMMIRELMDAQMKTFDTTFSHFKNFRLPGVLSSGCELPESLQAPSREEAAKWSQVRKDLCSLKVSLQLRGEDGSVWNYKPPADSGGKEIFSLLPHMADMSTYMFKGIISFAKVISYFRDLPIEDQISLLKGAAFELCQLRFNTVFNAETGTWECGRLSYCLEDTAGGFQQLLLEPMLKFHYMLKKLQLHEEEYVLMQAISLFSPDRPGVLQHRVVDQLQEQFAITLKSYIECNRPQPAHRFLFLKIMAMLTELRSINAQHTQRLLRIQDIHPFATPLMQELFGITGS
UniProt Q13936, whole entry, looked up: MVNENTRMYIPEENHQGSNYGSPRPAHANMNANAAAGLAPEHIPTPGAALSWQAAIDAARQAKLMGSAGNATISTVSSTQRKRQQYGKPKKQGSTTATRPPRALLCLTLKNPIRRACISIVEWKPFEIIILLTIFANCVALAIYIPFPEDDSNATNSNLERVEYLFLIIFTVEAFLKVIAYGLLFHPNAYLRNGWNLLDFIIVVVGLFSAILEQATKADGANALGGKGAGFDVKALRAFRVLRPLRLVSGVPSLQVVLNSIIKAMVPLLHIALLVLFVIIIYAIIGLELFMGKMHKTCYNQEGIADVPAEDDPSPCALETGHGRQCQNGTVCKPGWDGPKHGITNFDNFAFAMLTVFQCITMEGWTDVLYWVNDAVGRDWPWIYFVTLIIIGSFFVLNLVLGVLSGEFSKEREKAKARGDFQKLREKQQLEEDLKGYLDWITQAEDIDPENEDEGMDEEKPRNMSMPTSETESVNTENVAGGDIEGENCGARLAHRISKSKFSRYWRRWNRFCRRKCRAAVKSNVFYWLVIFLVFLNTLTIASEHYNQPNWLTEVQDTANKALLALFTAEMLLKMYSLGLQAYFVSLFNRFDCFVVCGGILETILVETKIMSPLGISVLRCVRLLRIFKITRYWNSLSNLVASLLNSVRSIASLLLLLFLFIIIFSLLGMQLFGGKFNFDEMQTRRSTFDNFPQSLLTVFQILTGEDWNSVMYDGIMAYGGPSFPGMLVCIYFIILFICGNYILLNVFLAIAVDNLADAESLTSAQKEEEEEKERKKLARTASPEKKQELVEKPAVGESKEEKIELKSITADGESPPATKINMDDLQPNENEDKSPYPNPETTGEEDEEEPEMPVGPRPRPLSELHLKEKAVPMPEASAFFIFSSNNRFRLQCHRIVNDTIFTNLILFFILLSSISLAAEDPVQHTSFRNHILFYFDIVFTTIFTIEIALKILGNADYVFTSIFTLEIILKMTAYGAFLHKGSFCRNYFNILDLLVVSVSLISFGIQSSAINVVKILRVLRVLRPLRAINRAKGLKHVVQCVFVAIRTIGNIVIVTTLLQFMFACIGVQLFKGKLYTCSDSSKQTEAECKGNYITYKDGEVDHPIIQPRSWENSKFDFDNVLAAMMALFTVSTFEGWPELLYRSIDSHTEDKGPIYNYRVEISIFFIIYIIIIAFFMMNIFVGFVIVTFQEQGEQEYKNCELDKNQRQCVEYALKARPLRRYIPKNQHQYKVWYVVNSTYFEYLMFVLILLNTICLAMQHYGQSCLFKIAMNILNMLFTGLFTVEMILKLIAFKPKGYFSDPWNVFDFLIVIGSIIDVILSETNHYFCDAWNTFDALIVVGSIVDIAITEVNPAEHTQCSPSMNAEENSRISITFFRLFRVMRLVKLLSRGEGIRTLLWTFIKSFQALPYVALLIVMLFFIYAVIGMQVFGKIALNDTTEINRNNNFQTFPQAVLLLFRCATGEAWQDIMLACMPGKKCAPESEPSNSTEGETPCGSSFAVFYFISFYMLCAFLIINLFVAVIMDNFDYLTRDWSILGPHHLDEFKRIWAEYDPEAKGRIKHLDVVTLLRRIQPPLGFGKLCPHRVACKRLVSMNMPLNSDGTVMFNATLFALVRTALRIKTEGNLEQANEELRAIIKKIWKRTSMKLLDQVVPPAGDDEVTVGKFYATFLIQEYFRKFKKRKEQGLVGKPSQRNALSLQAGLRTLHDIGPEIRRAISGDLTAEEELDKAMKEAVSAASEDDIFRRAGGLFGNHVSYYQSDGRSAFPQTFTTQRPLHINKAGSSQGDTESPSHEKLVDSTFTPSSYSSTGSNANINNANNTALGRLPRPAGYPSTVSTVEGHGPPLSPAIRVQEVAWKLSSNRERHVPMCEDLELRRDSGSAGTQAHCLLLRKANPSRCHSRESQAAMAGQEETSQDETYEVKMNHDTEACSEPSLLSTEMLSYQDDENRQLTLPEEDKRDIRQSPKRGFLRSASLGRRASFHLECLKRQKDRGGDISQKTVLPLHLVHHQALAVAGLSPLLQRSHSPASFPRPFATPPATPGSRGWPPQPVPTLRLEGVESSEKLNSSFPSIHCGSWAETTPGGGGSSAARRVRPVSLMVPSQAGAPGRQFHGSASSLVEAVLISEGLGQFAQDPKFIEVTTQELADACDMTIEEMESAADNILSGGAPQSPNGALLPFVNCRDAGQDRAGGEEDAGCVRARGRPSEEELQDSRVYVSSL
UniProt P22001, whole entry, looked up: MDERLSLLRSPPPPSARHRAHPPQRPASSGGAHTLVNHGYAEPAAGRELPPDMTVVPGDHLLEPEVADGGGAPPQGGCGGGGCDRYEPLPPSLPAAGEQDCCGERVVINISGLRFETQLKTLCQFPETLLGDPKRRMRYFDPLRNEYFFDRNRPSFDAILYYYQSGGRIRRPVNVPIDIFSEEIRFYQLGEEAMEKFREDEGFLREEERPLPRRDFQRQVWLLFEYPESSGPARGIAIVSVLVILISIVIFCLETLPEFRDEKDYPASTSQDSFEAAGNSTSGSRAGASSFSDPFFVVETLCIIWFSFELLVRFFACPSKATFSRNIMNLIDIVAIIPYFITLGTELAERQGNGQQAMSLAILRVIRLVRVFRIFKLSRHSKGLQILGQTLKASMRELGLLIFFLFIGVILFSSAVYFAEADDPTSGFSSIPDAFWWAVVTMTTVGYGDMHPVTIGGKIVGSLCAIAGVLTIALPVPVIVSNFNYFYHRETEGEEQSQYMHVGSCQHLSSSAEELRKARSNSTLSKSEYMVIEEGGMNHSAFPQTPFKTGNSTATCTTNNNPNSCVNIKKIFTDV
UniProt P22460, whole entry, looked up: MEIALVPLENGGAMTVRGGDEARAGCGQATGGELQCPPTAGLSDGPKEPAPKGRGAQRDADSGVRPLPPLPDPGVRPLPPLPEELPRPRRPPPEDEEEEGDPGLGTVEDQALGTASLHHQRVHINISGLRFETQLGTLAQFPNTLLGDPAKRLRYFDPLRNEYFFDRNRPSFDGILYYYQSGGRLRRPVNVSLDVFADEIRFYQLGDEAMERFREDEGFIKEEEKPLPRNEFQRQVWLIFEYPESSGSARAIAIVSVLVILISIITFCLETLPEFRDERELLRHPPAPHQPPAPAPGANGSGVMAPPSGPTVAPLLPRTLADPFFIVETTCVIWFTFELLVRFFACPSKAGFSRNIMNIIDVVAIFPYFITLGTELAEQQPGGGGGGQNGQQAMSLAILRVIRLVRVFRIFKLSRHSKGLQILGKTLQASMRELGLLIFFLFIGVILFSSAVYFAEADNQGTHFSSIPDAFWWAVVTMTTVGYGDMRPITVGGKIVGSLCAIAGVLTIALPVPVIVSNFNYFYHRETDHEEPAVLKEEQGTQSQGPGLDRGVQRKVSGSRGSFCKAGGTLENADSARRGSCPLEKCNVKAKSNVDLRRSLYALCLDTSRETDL
UniProt Q14524, whole entry, looked up: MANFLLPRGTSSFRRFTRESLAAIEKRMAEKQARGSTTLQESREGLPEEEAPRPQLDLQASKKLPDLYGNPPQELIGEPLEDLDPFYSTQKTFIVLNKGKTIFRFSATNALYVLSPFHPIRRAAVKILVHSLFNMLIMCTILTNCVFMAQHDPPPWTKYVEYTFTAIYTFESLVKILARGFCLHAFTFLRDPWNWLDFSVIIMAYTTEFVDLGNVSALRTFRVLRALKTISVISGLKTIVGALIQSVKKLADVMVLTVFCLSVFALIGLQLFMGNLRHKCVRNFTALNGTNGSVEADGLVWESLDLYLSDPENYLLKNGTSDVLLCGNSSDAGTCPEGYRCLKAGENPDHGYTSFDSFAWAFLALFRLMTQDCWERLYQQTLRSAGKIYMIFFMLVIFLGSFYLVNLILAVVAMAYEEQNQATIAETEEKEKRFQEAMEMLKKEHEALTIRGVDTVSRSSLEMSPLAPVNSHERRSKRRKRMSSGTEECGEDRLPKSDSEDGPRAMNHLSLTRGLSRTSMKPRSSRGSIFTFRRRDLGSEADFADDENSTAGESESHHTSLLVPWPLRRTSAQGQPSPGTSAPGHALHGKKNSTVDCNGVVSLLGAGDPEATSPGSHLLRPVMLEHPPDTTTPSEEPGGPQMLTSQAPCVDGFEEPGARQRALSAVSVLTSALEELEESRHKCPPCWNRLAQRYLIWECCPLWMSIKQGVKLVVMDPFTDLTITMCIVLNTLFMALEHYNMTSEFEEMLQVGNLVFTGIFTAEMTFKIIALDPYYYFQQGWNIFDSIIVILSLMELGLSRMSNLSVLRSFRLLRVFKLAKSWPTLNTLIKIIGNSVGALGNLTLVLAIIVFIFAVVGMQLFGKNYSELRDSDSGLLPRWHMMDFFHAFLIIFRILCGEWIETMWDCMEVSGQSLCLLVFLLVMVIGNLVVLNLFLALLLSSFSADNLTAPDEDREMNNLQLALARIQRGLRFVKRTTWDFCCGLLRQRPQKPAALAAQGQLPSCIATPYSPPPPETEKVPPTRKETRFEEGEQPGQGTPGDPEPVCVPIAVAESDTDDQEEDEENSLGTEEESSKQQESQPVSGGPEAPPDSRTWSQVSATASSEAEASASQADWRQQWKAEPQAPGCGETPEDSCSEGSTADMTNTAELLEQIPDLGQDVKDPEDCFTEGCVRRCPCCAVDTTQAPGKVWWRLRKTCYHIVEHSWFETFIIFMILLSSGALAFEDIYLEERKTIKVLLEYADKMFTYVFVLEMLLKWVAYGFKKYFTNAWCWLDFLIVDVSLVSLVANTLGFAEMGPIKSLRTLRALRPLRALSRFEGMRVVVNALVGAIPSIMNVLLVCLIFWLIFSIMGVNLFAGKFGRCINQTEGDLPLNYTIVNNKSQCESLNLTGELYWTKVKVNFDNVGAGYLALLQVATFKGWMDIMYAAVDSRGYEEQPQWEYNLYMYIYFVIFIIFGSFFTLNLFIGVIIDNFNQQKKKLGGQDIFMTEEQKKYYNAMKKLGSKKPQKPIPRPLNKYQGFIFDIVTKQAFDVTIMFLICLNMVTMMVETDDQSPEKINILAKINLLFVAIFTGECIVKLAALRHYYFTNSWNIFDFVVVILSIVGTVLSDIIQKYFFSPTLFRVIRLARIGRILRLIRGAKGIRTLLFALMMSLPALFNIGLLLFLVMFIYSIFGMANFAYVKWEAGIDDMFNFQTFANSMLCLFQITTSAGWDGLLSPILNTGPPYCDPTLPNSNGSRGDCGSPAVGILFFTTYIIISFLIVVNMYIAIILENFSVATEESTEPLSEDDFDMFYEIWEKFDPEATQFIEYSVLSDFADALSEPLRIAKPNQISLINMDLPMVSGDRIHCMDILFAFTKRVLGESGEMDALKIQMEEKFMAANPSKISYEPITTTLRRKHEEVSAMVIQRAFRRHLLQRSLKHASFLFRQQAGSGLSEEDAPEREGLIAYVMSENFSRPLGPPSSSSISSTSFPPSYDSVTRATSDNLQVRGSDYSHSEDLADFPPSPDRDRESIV

Experiments:
Bradykinin B1 = Bradykinin B1 (Homo sapiens, UniProt P46663); test: Lead Profiling Screen
[1] = system: Calcium Channel L-Type, Dihydropyridine; test: Lead Profiling Screen
Cannabinoid CB1 = Cannabinoid CB1 (Homo sapiens, UniProt P21554); test: Lead Profiling Screen
[2] = biological target: Epidermal Growth Factor (EGF) (Homo sapiens, UniProt P00533); test: Lead Profiling Screen
Phorbol Ester = test: Lead Profiling Screen
Thyroid Hormone = test: Lead Profiling Screen
[3] = system: frontal cortex spectral power; test: Quantitative EEG (qEEG); details: 0.3, 1, 3, 10 mg/kg PO, 1–2 h post dosing
human CAR = human CAR (Homo sapiens, UniProt Q14994); test: Reporter gene activation study; details: 10 μM
human PXR = human PXR (Homo sapiens, UniProt O75469); test: Reporter gene activation study; details: 4 µM
[4] = system: conditioned avoidance response; test: Conditioned avoidance response (CAR)
hCav1.2 = hCav1.2 (Homo sapiens, UniProt Q13936); test: Cardiac Ion Channel Panel (QPatch HT); details: 10 μM
hCav3.2 = hCav3.2 (Homo sapiens, UniProt O95180); test: Cardiac Ion Channel Panel (QPatch HT); details: 10 μM
hERG = hERG (Homo sapiens, UniProt Q12809); test: Cardiac Ion Channel Panel (QPatch HT); details: 10 μM
hHCN2 = hHCN2 (Homo sapiens, UniProt Q9UL51); test: Cardiac Ion Channel Panel (QPatch HT); details: 10 μM
hKv1.3 = hKv1.3 (Homo sapiens, UniProt P22001); test: Cardiac Ion Channel Panel (QPatch HT); details: 10 μM
hKv1.5 = hKv1.5 (Homo sapiens, UniProt P22460); test: Cardiac Ion Channel Panel (QPatch HT); details: 10 μM
hKvLQT1/mink = hKvLQT1/mink (Homo sapiens, UniProt P51787); test: Cardiac Ion Channel Panel (QPatch HT); details: 10 μM
hNav1.5 = hNav1.5 (Homo sapiens, UniProt Q14524); test: Cardiac Ion Channel Panel (QPatch HT); details: 10 µM
[5] = Gastro-Plus predicted parameters for PBPK
[6] = Human PK and dose prediction, IVIVE approach
P-gp (MDR1) = P-gp (MDR1) (Homo sapiens, UniProt P08183); test: Permeability and active transport in MDR1-transfected MDCKII cells
BCRP = BCRP (Homo sapiens, UniProt Q9UNQ0); test: Permeability and active transport in BCRP-transfected MDCKII cells

## Cc1nnc2sc3c(NCc4ccc(C(C)(C)O)cc4)ncnc3c2c1C
Bradykinin B1
  % inh at 10 μM: -10%
[1]
  % inh at 10 μM: -9%
Cannabinoid CB1
  % inh at 10 μM: 4%
[2]
  % inh at 10 μM: 2%
Phorbol Ester
  % inh at 10 μM: -1%
Thyroid Hormone
  % inh at 10 μM: -4%
[3]
  effect on qEEG power during wake: robust, dose-dependent increase in high gamma power
Human CAR
  CAR activation (tendency): 1.8 fold of DMSO control
Human PXR
  PXR activation: 2.0 fold of DMSO control
[4]; combined with threshold dose of risperidone (0.2 mg/kg)
  effect on avoidance and escape responses: affected avoidance and escape responses to a larger degree at lower doses
[4]; compound alone
  effect on avoidance and escape responses: only a moderate effect on avoidance and escape responses at 30 mg/kg
hCav1.2
  Mean % Inhibition: 12.4%
hCav3.2
  Mean % Inhibition: 8.3%
hERG
  Mean % Inhibition: 4.2%
hHCN2
  Mean % Inhibition: 3.9%
hKv1.3
  Mean % Inhibition: -1.0%
hKv1.5
  Mean % Inhibition: 0.3%
hKvLQT1/mink
  Mean % Inhibition: 1.5%
hNav1.5; Phasic
  Mean % Inhibition: 2.8%
hNav1.5; Tonic
  Mean % Inhibition: 3.0%
[5]; dog
  Predicted plasma CLhepatic, metabolic: 0.70 L/h/kg
[5]; human
  Predicted plasma CLhepatic, metabolic: 0.046 L/h/kg
[5]; minipig
  Predicted plasma CLhepatic, metabolic: 0.19 L/h/kg
[5]; monkey
  Predicted plasma CLhepatic, metabolic: 0.19 L/h/kg
[5]; rat
  Predicted plasma CLhepatic, metabolic: 0.19 L/h/kg
[6]; IVIVE
  predicted Oral Fabs: ~ 50%
  predicted human CLhep: 0.77 mL/min/kg
  predicted human Vss: 0.44 L/kg
  predicted human oral bioavailability (% F): 48%
  predicted human t1/2: 6.6 h
  predicted plasma CLhep: 0.046 L/h/kg
[6]; IVIVE and PBPK, listed as VU6008055
  human target total plasma conc: 4200 ng/mL and 11162 nM
[6]; IVIVE, BID
  predicted twice daily dose: 640 mg
[6]; IVIVE, QD
  predicted once daily dose: 820 mg
P-gp (MDR1); 0.5 µM, without P-gp inhibitor
  Papp B-A: 5.0 [4.1-6.0] cm/s x 10-6
P-gp (MDR1); PBPK input, Table S16
  MDCK-MDR1 A2B Papp: 9 ×10⁻⁶ cm/s
P-gp (MDR1); without inhibitor, unit inferred
  Papp A-B: 6.4 ×10⁻⁶ cm/s
BCRP; 1 µM, without BCRP inhibitor
  Papp A-B: 2.3 [1.7-3.0] cm/s x 10-6
  Papp B-A: 16 cm/s x 10-6
BCRP; MDCKII-BCRP
  permeability classification: moderate permeability

“And” between values parts separate entries of the source, which are not always exact repeats. Equal values may be shown once.
